Among the data in patent publication US5614510A, “Pharmaceutical composition with improved bioavailability of inositol phosphate” (priority 1992, dated 1997) are concentration values, retold here.

The series in a line: bioavailability of IP3 in pigs: blood concentration of IP3 and AUC after intravenous, intraduodenal or oral administration. To be noted: pig, in vivo. On the procedure: The bioavailability of N(3-dodecanoyloxy)propyltrimethylammonium inositol trisphosphate (obtained according to Example 1) after oral administration was determined in an experiment with pigs. Five pigs were given an intravenous injection of the sodium salt of D-myo-inositol-1.2.6-trisphosphate (IP3) and blood samples were collected 0.25 hr, 0.5 hr, 1 hr, 4 hrs, 6 hrs, 8 hrs and 24 hrs after the injection. The blood samples were assayed for the content of IP3 and these measurements were used for the calculation of the reference data as 100% of the substance is introduced into the blood stream after an intravenous injection.
Another five pigs were given the N(3-dodecanoyloxy)propyltrimethyl ammonium salt of IP3 as an intraduodenal dosing. The animals were treated with Atropin® and anaesthetized with Hypnodil®/Sedaperone® whereafter a laparotomy was carried out. Blood samples were collected at the time intervals mentioned above and the concentration of IP3 was determined in each sample. By calculating the area under the curve (AUC) from a graph where the concentration versus time is shown and comparing the obtained value with a similar calculation from the data after intravenous injection of the substance the bioavailability for the specific formulation is obtained.
Still another five pigs were given the penta-sodium salt of IP3 orally. Blood samples were collected at the same time intervals as above and the concentration of IP3 was determined. Following a similar procedure the AUC was determined.
The bioavailability of N-(hexyloxycarbonyl)methyl trimethyl ammonium inositol trisphosphate after oral administration was determined with a method similar to the description in Example 2. […] Blood samples were collected and the concentration of IP3 were determined.
The bioavailability of a formulation consisting of dodecyldimethyl amine and D-myo-inositol-1.2.6-trisphosphate (IP3) after oral administration was determined with a method similar to the description in Example 2. […] Blood samples were collected and the concentration of IP3 were determined.

Counter-ions that a name gives are not always drawn.

The compound `O=P(O)(O)O[C@@H]1[C@H](OP(=O)(O)O)[C@H](O)[C@@H](O)[C@H](O)[C@H]1OP(=O)(O)O` [sodium salt, pentasodium salt of D-myo-inositol-1.2.6-triphosphate] had a concentration at 6 h (iv) of 1.1 µM. Moreover, the concentration (iv, 6 h) stood at 1.1 µM. In turn, “N-(hexyloxycarbonyl)methyl trimethyl ammonium inositol trisphosphate” came in with a concentration (8 h) of 0.6 µM.
